# Measured values taken from ChEMBL document CHEMBL2439973, “Discovery of VU0409106: A negative allosteric modulator of mGlu5 with activity in a mouse model of anxiety” (Bioorg Med Chem Lett, 2013).
# Chains of the proteins cited; added tags and fusions are not shown.
# UniProt P31424, whole entry, looked up: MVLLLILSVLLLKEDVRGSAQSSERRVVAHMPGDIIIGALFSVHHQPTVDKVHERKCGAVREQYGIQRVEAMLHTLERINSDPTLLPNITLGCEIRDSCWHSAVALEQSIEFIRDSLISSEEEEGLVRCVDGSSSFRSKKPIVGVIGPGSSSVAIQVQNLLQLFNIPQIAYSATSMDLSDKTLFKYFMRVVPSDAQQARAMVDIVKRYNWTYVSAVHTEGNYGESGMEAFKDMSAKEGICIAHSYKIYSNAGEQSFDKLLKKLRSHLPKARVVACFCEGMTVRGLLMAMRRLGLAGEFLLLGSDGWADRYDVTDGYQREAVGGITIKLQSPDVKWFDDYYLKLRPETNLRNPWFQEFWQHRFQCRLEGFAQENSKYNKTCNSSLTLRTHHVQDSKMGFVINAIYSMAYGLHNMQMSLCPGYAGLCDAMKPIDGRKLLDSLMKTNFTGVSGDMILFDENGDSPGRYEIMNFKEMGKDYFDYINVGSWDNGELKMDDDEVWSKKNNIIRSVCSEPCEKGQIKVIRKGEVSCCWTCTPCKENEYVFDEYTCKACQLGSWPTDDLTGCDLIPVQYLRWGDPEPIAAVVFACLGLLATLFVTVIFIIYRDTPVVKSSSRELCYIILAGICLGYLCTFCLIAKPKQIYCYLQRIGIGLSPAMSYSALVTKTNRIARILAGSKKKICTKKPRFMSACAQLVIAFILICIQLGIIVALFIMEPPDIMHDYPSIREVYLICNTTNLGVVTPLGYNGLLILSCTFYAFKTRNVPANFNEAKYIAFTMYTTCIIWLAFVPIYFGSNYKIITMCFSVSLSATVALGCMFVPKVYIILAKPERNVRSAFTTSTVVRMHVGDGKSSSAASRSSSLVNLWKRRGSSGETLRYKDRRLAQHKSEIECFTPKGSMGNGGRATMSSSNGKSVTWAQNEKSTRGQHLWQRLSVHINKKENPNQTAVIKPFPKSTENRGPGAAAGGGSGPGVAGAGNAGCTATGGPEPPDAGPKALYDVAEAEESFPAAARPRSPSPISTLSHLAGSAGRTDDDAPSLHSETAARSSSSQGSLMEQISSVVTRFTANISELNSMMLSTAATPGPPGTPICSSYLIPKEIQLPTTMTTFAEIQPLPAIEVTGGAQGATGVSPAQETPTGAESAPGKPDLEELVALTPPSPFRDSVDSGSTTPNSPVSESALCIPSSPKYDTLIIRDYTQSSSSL
# Target: Metabotropic glutamate receptor 5 (Rattus norvegicus) (UniProt P31424)
# Assay: Negative allosteric modulation of rat mGlu5 receptor expressed in HEK293A cells assessed as inhibition of glutamate-induced calcium mobilization at 30 uM preincubated for 140 seconds prior to glutamate-stimulation measured after 60 seconds relative to glutamate
# Type: functional, cell-based
# Settings: HEK293-A
row,Structure (SMILES),%max [%]
1,CCc1ccnc(NC(=O)c2cc(Cl)cc(Oc3cncnc3)c2)c1,2
2,O=C(Nc1cc(Cl)ccn1)c1cc(Cl)cc(Oc2cncnc2)c1,1.2
3,O=C(Nc1cccc(C(F)(F)F)n1)c1cc(F)cc(Oc2cncnc2)c1,3.7
4,O=C(Nc1ccc(F)c(C(F)F)n1)c1cc(Cl)cc(Oc2cncnc2)c1,1.6
5,O=C(Nc1nc(C(F)F)cs1)c1cc(Cl)cc(Oc2cncnc2)c1,1.2
6,O=C(Nc1cccc(CF)n1)c1cc(Cl)cc(Oc2cncnc2)c1,1.4
7,O=C(Nc1nccs1)c1cc(F)cc(Oc2cncnc2)c1,3.2
8,Cc1csc(NC(=O)c2cccc(Oc3cncnc3)c2)n1,1.7
9,O=C(Nc1ccc(Cl)cn1)c1cc(F)cc(Oc2cncnc2)c1,2
10,O=C(Nc1ccc(F)c(CF)n1)c1cc(Cl)cc(Oc2cncnc2)c1,1.2
11,Cc1nc(NC(=O)c2cc(F)cc(Oc3cncnc3)c2)sc1F,1.5
12,O=C(Nc1cccc(Cl)n1)c1cc(F)cc(Oc2cncnc2)c1,1.5
13,O=C(Nc1nc(C(F)(F)F)cs1)c1cc(Cl)cc(Oc2cncnc2)c1,1.2
14,O=C(Nc1cccc(C(F)F)n1)c1cc(Cl)cc(Oc2cncnc2)c1,1.1
15,O=C(Nc1ccc(F)cn1)c1cccc(Oc2cccnc2)c1,6.8
16,O=C(Nc1nc(C(F)F)cs1)c1cc(F)cc(Oc2cncnc2)c1,1.7
17,O=C(Nc1cc(C(F)(F)F)ccn1)c1cc(Cl)cc(Oc2cncnc2)c1,2
18,O=C(Nc1cccc(C(F)F)n1)c1cc(F)cc(Oc2cncnc2)c1,1.2
19,COc1cccc(NC(=O)c2cc(F)cc(Oc3cncnc3)c2)n1,1.6
20,Cc1nc(NC(=O)c2cc(Cl)cc(Oc3cncnc3)c2)sc1F,1.4
21,O=C(Nc1cccc(C(F)(F)F)n1)c1cc(Cl)cc(Oc2cncnc2)c1,1.5
22,Cc1cc(NC(=O)c2cc(Cl)cc(Oc3cncnc3)c2)ncc1F,10.2
23,O=C(Nc1ccc(Cl)cn1)c1cc(Cl)cc(Oc2cncnc2)c1,1.3
24,Cc1cc(Oc2cncnc2)cc(C(=O)Nc2ccc(F)cn2)c1,0.8
25,Cc1csc(NC(=O)c2cccc(Oc3cccnc3)c2)n1,1.7
26,O=C(Nc1nc(CF)cs1)c1cc(F)cc(Oc2cncnc2)c1,1.6
27,Cc1nc(NC(=O)c2cc(Cl)cc(Oc3cncnc3)c2)ccc1F,1.1
28,O=C(Nc1ccc(F)cn1)c1cc(F)cc(Oc2cncnc2)c1,1.3

# Next, values leading:
row,%max [%],Structure (SMILES)
1,1.3,Cc1cccc(NC(=O)c2cccc(Oc3cccnc3)c2)n1
2,1.4,O=C(Nc1ccccn1)c1cc(F)cc(Oc2cncnc2)c1
3,1.7,Cc1ccnc(NC(=O)c2cc(Cl)cc(Oc3cncnc3)c2)c1
4,1.6,O=C(Nc1ccccn1)c1cccc(Oc2cccnc2)c1
5,1.4,Cc1ccnc(NC(=O)c2cc(F)cc(Oc3cncnc3)c2)c1
6,1.1,Cc1cccc(NC(=O)c2cc(Cl)cc(Oc3cncnc3)c2)n1
7,1.6,O=C(Nc1cccc(F)n1)c1cc(F)cc(Oc2cncnc2)c1
8,1,O=C(Nc1cccc(Oc2cccnc2)c1)c1cccc(Cl)c1
9,27.8,Cc1cc(NC(=O)c2cccc(Oc3cccnc3)c2)ccn1
10,52.6,O=C(Nc1ncccc1F)c1cc(Cl)cc(Oc2cncnc2)c1
11,1.2,O=C(Nc1ccccn1)c1cc(Cl)cc(Oc2cncnc2)c1
12,1.9,CCc1cccc(NC(=O)c2cccc(Oc3cccnc3)c2)n1
13,3.2,COc1cccc(NC(=O)c2cccc(Oc3cccnc3)c2)n1
14,49.9,O=C(Nc1ccncn1)c1cccc(Oc2cccnc2)c1
